From article PMC11684019, “Unveiling the Antimycobacterial Potential of Novel 4-Alkoxyquinolines: Insights into Selectivity, Mechanism of Action, and In Vivo Exposure” (Journal of Medicinal Chemistry, 2024)

Details: mice, 300 mg/kg gavage

## CCc1ccc(NCCCOc2cc(C)nc3ccc(Br)cc23)cc1 [8t, N-(3-((6-bromo-2-methylquinolin-4-yl)oxy)propyl)-4-ethylaniline]
  Plasma concentration at 8 h relative to MIC against H37Rv: 196 fold
